# Values of other authors as cited in US11474103B2, “Systems for detection” (dated 2022).
# Tested on: dogs
# Conditions: concentration in air detectable by dogs
compound,measurement,value
CC(C)([N+](=O)[O-])C(C)(C)[N+](=O)[O-],detectable by dogs in air,(detectable by dogs at 0.5 ppb
